{"source": "patent US20060287345A1", "about": "“Substituted 4-phenyl-4-[1h-imidazol-2-yl]-piperidine derivatives as selective non-peptide delta opiod agonists with antidepressant and anxiolytic activity” (priority 2003, published 2006)"}
{"molecular_target": "cloned human δ opioid receptor (Homo sapiens, UniProt P41143)", "test": "Radioligand binding, competitive inhibition of [3H]DPDPE", "conditions": "Table 7"}
{"smiles": "CS(=O)(=O)N1CCC(c2ccccc2)(c2nccn2Cc2ccccc2)CC1", "pIC50 values for the delta opioid receptor agonist test": 7.4}
{"smiles": "O=[N+]([O-])C=C(Nc1ccccc1)N1CCC(c2ccccc2)(c2nccn2Cc2ccccc2)CC1", "pIC50 values for the delta opioid receptor agonist test": 7.5}
{"smiles": "S=C(Nc1ccccc1)N1CCC(c2ccccc2)(c2nccn2Cc2ccccc2)CC1", "pIC50 values for the delta opioid receptor agonist test": 7.4}
